This data set deals with Ala-Leu.

These results are taken from patent US7589065.

For the substance “peptidyl-prolyl cis/trans isomerase (PPIase) Cyp18”, the “rate constant kobs of the cis/trans isomerisation of Ala-Leu with 0 to 8,330 nM Cyp18” value is recorded as “no acceleration of the cis to trans reaction could be observed ... the rate constants kobs established are within a range of about 0.43±0.03 s^-1”.
